Reference: paper PMC6876566 (Nature Communications, 2019)

Sequences of proteins named here, by UniProt entry; tags and fusion partners are left off.
human RPA complex (recombinant), UniProt P15927, whole entry, chain 2 of 3: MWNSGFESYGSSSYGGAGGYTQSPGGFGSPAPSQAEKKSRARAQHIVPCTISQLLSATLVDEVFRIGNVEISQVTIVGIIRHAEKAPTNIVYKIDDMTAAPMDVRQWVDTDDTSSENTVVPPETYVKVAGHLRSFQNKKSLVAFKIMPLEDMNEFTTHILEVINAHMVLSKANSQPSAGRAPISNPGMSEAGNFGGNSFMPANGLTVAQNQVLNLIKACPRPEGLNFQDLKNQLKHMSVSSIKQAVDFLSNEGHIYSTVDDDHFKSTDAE
human RPA complex (recombinant), UniProt P35244, whole entry, chain 3 of 3: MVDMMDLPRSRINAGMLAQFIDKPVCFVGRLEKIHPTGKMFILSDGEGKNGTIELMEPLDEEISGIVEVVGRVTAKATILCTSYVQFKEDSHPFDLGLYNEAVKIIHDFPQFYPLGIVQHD

Target: T1, human RPA complex (recombinant) (human, UniProt P27694 1-616; P15927 1-270; P35244 1-121)
T1 construct: RPA70 (RPA1), human, subunit of the recombinant RPA complex; RPA32 (RPA2), human, subunit of the recombinant RPA complex; third subunit of RPA (RPA3, RPA14), human; named only in 'RPA1/2/3 complex'; also called purified RPA complex; RPA1/2/3 complex; source: E. coli, purified (Affi-Gel Blue, hydroxylapatite, Mono-Q); copies: + +
Test: pull-down; biotin labeled single fork DNA on streptavidin beads incubated first with purified RPA1/2/3 complex for 30 min, then with GST-ZFP161; 40 mM Tris-HCl pH 7.5, 150 mM NaCl, 10 mM MgCl2, BSA, DTT, ATP, glycerol; proteins retained on DNA immunoblotted
Settings: both partners purified

B1: GST-ZFP161 (WT) (natural protein, UniProt O43829 1-449, looked up)
chain: MEFFISMSETIKYNDDDHKTLFLKTLNEQRLEGEFCDIAIVVEDVKFRAHRCVLAACSTYFKKLFKKLEVDSSSVIEIDFLRSDIFEEVLNYMYTAKISVKKEDVNLMMSSGQILGIRFLDKLCSQKRDVSSPDENNGQSKSKYCLKINRPIGDAADTQDDDVEEIGDQDDSPSDDTVEGTPPSQEDGKSPTTTLRVQEAILKELGSEEVRKVNCYGQEVESMETPESKDLGSQTPQALTFNDGMSEVKDEQTPGWTTAASDMKFEYLLYGHHREQIACQACGKTFSDEGRLRKHEKLHTADRPFVCEMCTKGFTTQAHLKEHLKIHTGYKPYSCEVCGKSFIRAPDLKKHERVHSNERPFACHMCDKAFKHKSHLKDHERRHRGEKPFVCGSCTKAFAKASDLKRHENNMHSERKQVTPSAIQSETEQLQAAAMAAEAEQQLETIACS
notes: ZFP161 (ZBTB14), 'WT' as against the N-, M- and C-terminal fragments; sub-cloned from pCMV6-Myc-ZFP161 (ORIGENE) into pGEX4T-2; also called GST-tagged ZFP161; source: E. coli, purified on glutathione beads (used on beads or eluted)
binding result: binds
